{"source": "ChEMBL document CHEMBL3217567", "about": "“Differential activation of soluble guanylate cyclase by a series of aryl disulfanyl dinitrate esters” (Medchemcomm, 2014)", "key": {"Rattus norvegicus [1]": {"organism": "Rattus norvegicus", "experiment": "Activation of Sprague-Dawley rat soluble guanylate cyclase after 10 mins in presence of cysteine"}, "Rattus norvegicus [2]": {"organism": "Rattus norvegicus", "experiment": "Activation of Sprague-Dawley rat soluble guanylate cyclase after 10 mins in presence of cysteine relative to GTN"}}, "data": [{"smiles": "O=[N+]([O-])OCC(CSSc1ccc([N+](=O)[O-])cc1)O[N+](=O)[O-]", "note": "(configuration not stated)", "values": [{"measurement": "Activity", "setting": "Rattus norvegicus [1]", "value": "Dose-dependent effect"}, {"measurement": "Emax", "setting": "Rattus norvegicus [2]", "value": 116, "unit": "%"}]}]}
